According to patent US6153429A (priority 1997, dated 2000):

Test system: T1 cells (C3H/10T1/2 fibroblasts transfected with pdBPV-1 (142-6))
Assay: co-culture focus formation (transformation) assay, T1 test cells on lawn of untransfected C3H/10T1/2 cells
Details: 21 days; optimal dose: caffeine 150 mg/ml, tetrahydrofuran 0.1%, FeCl3 50 μM, arsenate 5 μM, mezerein 2.0 ng/ml, vanadyl 0.1 μM, arsenite 0.01 μM, cadmium 1.0 μM, diethylstilbestroel 0.5 μM, 1-methyl-3-nitro-1-nitrosguanidine 0.1 μg/ml, benzo[a]pyrene 0.033 μM

CN(N=O)C(=N)N[N+](=O)[O-]
#Foci In Treated Cells: 81 + 4 | Ratio of Treated: Untreated Foci: 1.1
